Patent publication US9459250B2, “Use of T1R3 venus flytrap region polypeptide to screen for taste modulators” (SENOMYX, INC., priority 2003, dated 2016)

Sequences of proteins named here, by UniProt entry; tags and fusion partners are left off. Residues count along the entry.
UniProt Q7RTX0, 21-852 C757R: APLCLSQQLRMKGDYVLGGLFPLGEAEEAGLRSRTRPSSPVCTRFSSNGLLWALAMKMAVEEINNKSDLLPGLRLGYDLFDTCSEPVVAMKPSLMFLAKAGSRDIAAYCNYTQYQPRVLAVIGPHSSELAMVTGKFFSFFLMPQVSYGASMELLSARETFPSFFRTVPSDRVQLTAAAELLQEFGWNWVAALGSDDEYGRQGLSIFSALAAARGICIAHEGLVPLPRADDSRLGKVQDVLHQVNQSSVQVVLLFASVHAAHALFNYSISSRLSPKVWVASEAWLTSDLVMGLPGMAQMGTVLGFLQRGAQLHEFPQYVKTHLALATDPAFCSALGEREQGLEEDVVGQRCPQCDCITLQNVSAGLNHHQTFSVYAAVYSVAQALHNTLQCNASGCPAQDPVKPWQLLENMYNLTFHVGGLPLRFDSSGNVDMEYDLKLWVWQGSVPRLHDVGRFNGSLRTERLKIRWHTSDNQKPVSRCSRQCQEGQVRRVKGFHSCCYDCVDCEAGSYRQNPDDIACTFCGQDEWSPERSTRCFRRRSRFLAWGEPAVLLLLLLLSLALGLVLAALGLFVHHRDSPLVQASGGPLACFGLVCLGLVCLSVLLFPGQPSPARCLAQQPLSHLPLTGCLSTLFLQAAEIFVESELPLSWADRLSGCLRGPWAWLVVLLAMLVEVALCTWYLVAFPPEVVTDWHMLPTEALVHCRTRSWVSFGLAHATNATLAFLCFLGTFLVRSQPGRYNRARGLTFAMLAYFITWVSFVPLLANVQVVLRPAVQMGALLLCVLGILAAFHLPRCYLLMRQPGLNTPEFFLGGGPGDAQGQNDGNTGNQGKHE
UniProt Q7RTX1, 21-841: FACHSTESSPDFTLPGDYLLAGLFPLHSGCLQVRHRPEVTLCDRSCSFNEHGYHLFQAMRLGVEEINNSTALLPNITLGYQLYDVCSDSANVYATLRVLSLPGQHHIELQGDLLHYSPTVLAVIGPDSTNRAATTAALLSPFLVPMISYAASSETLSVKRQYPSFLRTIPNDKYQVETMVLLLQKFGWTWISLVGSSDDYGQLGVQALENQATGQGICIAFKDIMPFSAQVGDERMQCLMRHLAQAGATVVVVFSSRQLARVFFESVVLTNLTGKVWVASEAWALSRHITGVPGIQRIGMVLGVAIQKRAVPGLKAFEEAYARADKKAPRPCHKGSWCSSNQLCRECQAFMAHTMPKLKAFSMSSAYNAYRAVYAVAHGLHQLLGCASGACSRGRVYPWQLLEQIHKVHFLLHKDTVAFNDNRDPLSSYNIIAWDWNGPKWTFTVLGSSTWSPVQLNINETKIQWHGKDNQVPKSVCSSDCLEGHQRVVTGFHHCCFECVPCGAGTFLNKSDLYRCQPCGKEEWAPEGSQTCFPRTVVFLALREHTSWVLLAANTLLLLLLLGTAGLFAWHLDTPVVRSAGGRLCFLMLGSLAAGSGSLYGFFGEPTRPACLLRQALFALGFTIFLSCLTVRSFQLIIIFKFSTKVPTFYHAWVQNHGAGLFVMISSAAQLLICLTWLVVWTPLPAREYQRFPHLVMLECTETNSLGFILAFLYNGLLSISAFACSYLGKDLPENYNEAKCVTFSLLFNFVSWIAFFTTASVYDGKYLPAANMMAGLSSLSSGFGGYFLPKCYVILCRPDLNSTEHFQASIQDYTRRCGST

Tests used:
T1R1/T1R3 = T1R1/T1R3 (Homo sapiens (Human), UniProt Q7RTX0+Q7RTX1); experiment: FLIPR dose responses of human T1R1/T1R3 stable cell line with modulators; assay type: cell-based; settings: cyclamate 8 mM, in the presence or absence of IMP
Description: (§1) “Detection thresholds” are defined as the lower limit of detectable tastants. The detection threshold values were averaged over four trials for three subjects. […] The activities in B, C, E and F represent the mean±SE of fold increases in fluorescence intensities for four recorded wells. The dose-responses in B, C, E and F were reproduced at least 6 times independently.
Human cell lines that stably co-express human T1R2/T1R3 or human T1R1/T1R3 were generated by transfecting linearized PEAK10-derived (Edge Biosystems) vectors and pcDNA 3.1/ZEO-derived (Invitrogen) vectors respectively containing hT1R1 or hT1R2 expression construct (plasmid SAV2485 for T1R1, SAV2486 for T1R2) and hT1R3 (plasmid SXV550 for T1R3) into a Gα15 expressing cell line. […] Following SAV2485/SXV550 and SAV2486/SXV550 transfections, puromycin-resistant and zeocin-resistant colonies were selected, expanded, and tested by calcium imaging for responses to sweet or umami taste stimuli. Cells were selected in 0.0005 mg/ml puromycin (CALBIOCHEM) and 0.1 mg/ml zeocin (Invitrogen) at 37° C. in low-glucose DMEM supplemented with GlutaMAX, 10% dialyzed FBS, and 0.003 mg/ml blasticidin. Resistant colonies were expanded, and their responses to sweet taste stimuli evaluated by Fluorescence microscopy. […]

[1] = test system: endogenous muscarinic acetylcholine receptor; experiment: Endogenous muscarinic acetylcholine receptor response in HEK cells; assay type: cell-based; settings: carbachol
Description: as §1

- left-shift of dose-response curves for L-glutamate (T1R1/T1R3): ~2 fold
Compound: O=S(=O)(O)NC1CCCCC1 [cyclamate]
- effect on endogenous muscarinic acetylcholine receptor response [1]: no effect
